Source: ChEMBL document CHEMBL1151743, “Dual inhibitors of matrix metalloproteinases and carbonic anhydrases: iminodiacetyl-based hydroxamate-benzenesulfonamide conjugates” (J Med Chem, 2008)

The chains behind the UniProt entries cited, without tags or fusion partners. Where a name states a change or a piece, a line headed by the entry shows the natural chain unless it says otherwise.
UniProt P22894: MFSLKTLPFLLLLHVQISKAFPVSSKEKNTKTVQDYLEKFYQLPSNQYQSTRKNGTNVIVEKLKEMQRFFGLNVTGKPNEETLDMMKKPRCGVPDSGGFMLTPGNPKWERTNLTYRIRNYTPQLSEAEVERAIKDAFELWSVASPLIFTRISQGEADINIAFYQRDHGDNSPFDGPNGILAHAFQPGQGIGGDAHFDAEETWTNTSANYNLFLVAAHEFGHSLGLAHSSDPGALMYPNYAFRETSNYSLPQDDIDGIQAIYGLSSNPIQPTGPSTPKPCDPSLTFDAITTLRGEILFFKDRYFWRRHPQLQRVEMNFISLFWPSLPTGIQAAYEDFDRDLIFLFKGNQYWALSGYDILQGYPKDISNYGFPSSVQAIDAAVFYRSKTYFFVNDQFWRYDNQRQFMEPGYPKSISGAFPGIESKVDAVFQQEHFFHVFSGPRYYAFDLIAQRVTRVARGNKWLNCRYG

Tests used:
[1] = target: T1, Interstitial collagenase (Homo sapiens, UniProt P03956); assay: Inhibition of MMP1
T1 sequence (P03956 whole entry): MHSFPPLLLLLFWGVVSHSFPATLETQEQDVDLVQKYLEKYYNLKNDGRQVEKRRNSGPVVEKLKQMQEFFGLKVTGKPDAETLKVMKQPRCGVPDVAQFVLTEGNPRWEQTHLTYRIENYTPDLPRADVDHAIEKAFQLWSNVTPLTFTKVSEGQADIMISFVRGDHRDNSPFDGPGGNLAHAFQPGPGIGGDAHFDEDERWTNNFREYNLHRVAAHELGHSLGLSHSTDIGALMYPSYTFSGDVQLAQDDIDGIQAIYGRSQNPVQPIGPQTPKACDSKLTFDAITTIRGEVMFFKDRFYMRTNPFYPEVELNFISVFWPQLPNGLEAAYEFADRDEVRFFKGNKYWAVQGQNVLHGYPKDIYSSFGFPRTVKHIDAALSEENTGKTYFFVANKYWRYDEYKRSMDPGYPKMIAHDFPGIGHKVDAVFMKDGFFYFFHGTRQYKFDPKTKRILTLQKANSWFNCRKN

[2] = target: Neutrophil collagenase (Homo sapiens, UniProt P22894); assay: Inhibition of MMP8

- IC50 [1]: 56.3 nM
- IC50 [2]: 7.7 nM
Structure (SMILES): COc1ccc(S(=O)(=O)N(Cc2cccnc2)[C@@H](C(=O)NO)C(C)C)cc1 [CGS-27023A]
